Test system: primary human GBM cells (GBM6, GBM12)
Assay: Cell death by trypan blue exclusion in primary human GBM cells
Assay type: cell-based
Details: GBM6, GBM12 infected with Ad.5-mda-7 moi 10; Na Valproate 0.3-1.0 mM, SBHA 0.3-5.0 μM; 48 h; dose-dependent
Description: FIG. 18A-C. […] (A) GBM6 cells, (B) GBM12 cells and (C) primary human astrocytes were infected with empty vector or recombinant serotype 5 adenovirus to express MDA-7/IL-24; at a multiplicity of infection (moi) of 10. After infection (24 h) cells were treated with vehicle control or with pharmacologically achievable concentrations of HDACIs, Na Valproate (0, 0.3, 0.5, 1.0 mM) or the vorinostat analogue SBHA (0, 0.3, 1.0, 3.0, 5.0 µM). Cells were isolated 48 h later and viability determined by trypan blue exclusion (n=3, +/−SEM) (*p<0.05 greater than corresponding value in Ad.5-cmv infected cells).
FIGS. 23A and B. SBHA enhances MDA-7/IL-24 toxicity through the extrinsic pathway. […] Cells were isolated 48 h later and viability determined by trypan blue exclusion (n=3, +/−SEM). […] Cells were isolated 24 h later and viability determined by trypan blue exclusion (n=3, +/−SEM) (*p<0.05 greater than corresponding Ad.5-cmv values). […]
Detection of Cell Death by Trypan Blue Assays. […] Trypan blue stain, in which blue dye incorporating cells were scored as being dead, was performed by counting of cells using a light microscope and a hemacytometer. Five hundred cells from randomly chosen fields were counted and the number of dead cells was counted and expressed as a percentage of the total number of cells counted.

For `CCCC(CCC)C(=O)[O-].[Na+]` [sodium valproate], the “effect on lethality of MDA-7/IL-24” value was “enhanced the lethality of MDA-7/IL-24”.
